Test results published in ChEMBL document CHEMBL3352590, “How a β-D-glucoside side chain enhances binding affinity to thrombin of inhibitors bearing 2-chlorothiophene as P1 moiety: crystallography, fragment deconstruction study, and evaluation of antithrombotic properties” (J Med Chem, 2014).

Biological target: Prothrombin (Bos taurus, UniProt P00735)
Experiment: Inhibition of bovine thrombin assessed as reduction in hydrolysis of chromogenic substrate S-2238 by Lineweaver-Burk analysis

- Ki: 18 nM
SMILES: CC(C)N1CCC(C(=O)Nc2ccccc2OCc2cc(-c3ccc(Cl)s3)on2)CC1
